# Binding of CDR-mutated scFvs to a peptide of the spike HR2 region

The measurements come from Engelhart et al. 2022 (doi:10.1038/s41597-022-01779-4) through the FLAb antibody collection.

All variants were tested on one target, the spike HR2 peptide PDVDLGDISGINAS (SARS-CoV-2).

Each scFv is VH, a 15-residue (Gly4Ser)3 linker, VL, as in the parent Ab-14, and differs from it in the CDRs of the heavy chain only.
VH: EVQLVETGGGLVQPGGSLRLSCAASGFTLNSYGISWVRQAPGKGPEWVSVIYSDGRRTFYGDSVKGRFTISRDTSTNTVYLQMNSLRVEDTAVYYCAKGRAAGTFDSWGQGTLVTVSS
VL: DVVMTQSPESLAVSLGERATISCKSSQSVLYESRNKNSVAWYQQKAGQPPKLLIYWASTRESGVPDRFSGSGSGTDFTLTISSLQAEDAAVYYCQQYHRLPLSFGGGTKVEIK

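The parent was found by panning a naive human phage display library on the peptide. Variants in AAYL49 differ from the parent at up to three CDR positions; double and triple changes were sampled at random. The assay is AlphaSeq: two haploid yeast populations carry antibody and antigen on their surface. Mating (16 h, 30 °C) was followed by selection of diploids and sequencing of their barcodes. Read counts were normalised to the haploid input and turned into Kd by a linear fit to BCL2-family pairs of known affinity, for each replicate. Mating was done three times.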

Positions count from residue 1 of the parent VH; S63L puts L in place of S.
Numbers give log10(Kd / nM), so 0 is 1 nM and 3 is 1 µM. Smaller is tighter.
Replicates are averaged; those with no signal do not enter the mean.
An entry "nd" has no value in the source: the pair was not observed among the diploids in that replicate. This suggests poor binding but is not conclusive.
Empty control strains, which show no peptide, gave a signal in 15% of pairings with library AAYL49; the median was 4.06 and 95% of these signals were weaker than 2.83. No background was subtracted. For each scFv, signals with the empty controls are counted beside the result, with their mean in brackets.

changes,log10 Kd (nM) by replicate,mean log10 Kd (nM),empty controls
S63L/R100N,1.95 / 2.66 / 2.93,2.51,0/9
S35F/G61W/A101G,nd / nd / nd,nd,0/9
F27R/G99I/D106G,nd / nd / nd,nd,1/9 (3.63)
Y52A/R100C/A102C,nd / nd / nd,nd,1/9 (4.24)
G26L/S63I/V64F,2.16 / 2.00 / 2.61,2.26,0/9
V50M/S53Q/S63Q,nd / 2.47 / 4.97,3.72,1/9 (4.95)
F27V/F59T/S107L,3.43 / 3.70 / 5.31,4.14,3/9 (4.38)
S35F/A101E/A102P,nd / 3.90 / nd,3.90,1/9 (4.14)
I34K/D54F/Y60W,nd / nd / nd,nd,1/9 (4.01)
S31L/V50G/R100N,nd / nd / nd,nd,0/9
D54S/R56T/D62Y,4.20 / nd / nd,4.20,3/9 (4.21)
L29W/N30S/A101M,3.10 / 3.50 / nd,3.30,0/9
T28Y/I51T/D54C,nd / nd / nd,nd,1/9 (4.15)
D54C,nd / 5.18 / 5.86,5.52,4/9 (4.31)
G26V/G33E/S53N,nd / 4.45 / nd,4.45,3/9 (4.22)
Y32D/S35I/D54V,nd / nd / nd,nd,0/9
S31R/G99E/F105M,nd / 4.74 / nd,4.74,2/9 (4.53)
S31Y/T58V/G99H,nd / nd / nd,nd,2/9 (4.08)
F27S/G33E/I51V,3.98 / nd / 6.42,5.20,5/9 (4.31)
L29R/G99Y,nd / nd / nd,nd,1/9 (3.26)
Y52W/F59I,4.85 / nd / nd,4.85,5/9 (3.75)
D62C/V64E/D106H,nd / nd / nd,nd,0/9
G55C/S63Q/A102V,nd / nd / nd,nd,0/9
I51S/S63L/S107V,5.75 / 5.05 / 2.93,4.58,3/9 (3.98)
S35C/V64H/T104F,nd / nd / 2.78,2.78,0/9
G26A/Y60I/T104F,nd / nd / nd,nd,0/9
V50Q/T58S/G99R,nd / nd / nd,nd,0/9
Y32L/T58C/G103N,nd / 4.79 / nd,4.79,2/9 (3.55)
Y32H/D54G/R56F,nd / nd / nd,nd,0/9
S31Y/Y32N/R56L,nd / nd / nd,nd,0/9
V64A,1.25 / 1.46 / 1.57,1.43,1/9 (3.95)
G99I,nd / 3.89 / nd,3.89,4/9 (4.33)

The 3 strongest on average among those seen in every replicate, once more:

changes,log10 Kd (nM) by replicate,mean log10 Kd (nM),empty controls
V64A,1.25 / 1.46 / 1.57,1.43,1/9 (3.95)
G26L/S63I/V64F,2.16 / 2.00 / 2.61,2.26,0/9
S63L/R100N,1.95 / 2.66 / 2.93,2.51,0/9